The other results are listed elsewhere or left out.
T1: LIN28A (human?, UniProt Q9H9Z2 1-209)
T1 sequence: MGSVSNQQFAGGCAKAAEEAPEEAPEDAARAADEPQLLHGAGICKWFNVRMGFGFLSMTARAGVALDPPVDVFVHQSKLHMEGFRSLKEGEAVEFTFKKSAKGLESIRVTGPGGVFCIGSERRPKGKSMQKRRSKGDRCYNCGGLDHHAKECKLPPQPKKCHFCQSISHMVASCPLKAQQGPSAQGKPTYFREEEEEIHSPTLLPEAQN

T2: CIRBP (Homo sapiens, UniProt Q14011 1-172)
T2 sequence: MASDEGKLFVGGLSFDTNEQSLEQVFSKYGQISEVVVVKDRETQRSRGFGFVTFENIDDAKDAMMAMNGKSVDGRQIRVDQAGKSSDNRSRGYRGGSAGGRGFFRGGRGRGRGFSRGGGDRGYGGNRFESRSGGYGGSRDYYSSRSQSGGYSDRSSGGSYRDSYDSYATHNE

T3: DHX36 (Homo sapiens, UniProt Q9H2U1 1-1008)
T3 sequence: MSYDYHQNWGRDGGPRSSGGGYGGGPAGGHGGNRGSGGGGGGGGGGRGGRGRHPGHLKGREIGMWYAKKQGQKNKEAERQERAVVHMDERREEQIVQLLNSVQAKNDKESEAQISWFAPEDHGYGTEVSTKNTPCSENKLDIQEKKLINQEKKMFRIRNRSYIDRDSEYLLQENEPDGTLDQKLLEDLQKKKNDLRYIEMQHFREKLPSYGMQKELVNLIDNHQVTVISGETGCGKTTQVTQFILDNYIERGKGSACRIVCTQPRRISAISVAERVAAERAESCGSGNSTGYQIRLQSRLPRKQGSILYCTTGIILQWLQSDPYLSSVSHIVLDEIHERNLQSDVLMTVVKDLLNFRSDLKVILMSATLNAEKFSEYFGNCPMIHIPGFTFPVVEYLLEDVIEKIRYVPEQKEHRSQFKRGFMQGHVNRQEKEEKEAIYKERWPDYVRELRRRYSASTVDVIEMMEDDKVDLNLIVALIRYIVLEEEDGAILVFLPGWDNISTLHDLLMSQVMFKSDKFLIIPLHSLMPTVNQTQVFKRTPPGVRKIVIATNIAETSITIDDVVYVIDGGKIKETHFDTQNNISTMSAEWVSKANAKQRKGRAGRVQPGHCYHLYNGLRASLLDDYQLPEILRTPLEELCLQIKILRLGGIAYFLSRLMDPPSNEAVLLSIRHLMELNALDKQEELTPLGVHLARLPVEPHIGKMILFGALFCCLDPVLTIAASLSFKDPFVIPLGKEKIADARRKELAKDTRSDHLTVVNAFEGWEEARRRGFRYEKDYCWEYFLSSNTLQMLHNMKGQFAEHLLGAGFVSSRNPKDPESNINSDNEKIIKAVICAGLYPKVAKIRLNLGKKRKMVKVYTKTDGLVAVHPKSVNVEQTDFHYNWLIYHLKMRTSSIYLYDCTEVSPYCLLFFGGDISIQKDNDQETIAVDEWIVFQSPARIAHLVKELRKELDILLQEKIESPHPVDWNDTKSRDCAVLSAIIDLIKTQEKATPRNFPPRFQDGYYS

B1: hsa-mir-1283-1 (structured_RNA)
RNA: GGGAAAGGAACAUGAGGUAUGACGUAAUGGUGUACGAAGUUUCAGCUUCUGUUGUCAGAAAGAAGAGAAGCUGAAGCUUCGUGCAC
B2: hsa-mir-30b (structured_RNA)
RNA: GGGAAGACCCAUAUGCUUUAAGUGGUAGGGUGUACGAAGUUUCAGCUCAGCUGUAAUACAUGGAUUGGCUGGGCUGAAGCUUCGUGCAC
B3: hsa-mir-4499 (structured_RNA)
RNA: GGGAACUAAUUAGACCAUACCGCACGGGGGUGUACGAAGUUUCAGCGGGAACUGGUGAGUUGUACAUAGAAAUGCUUUCUAACUCCGCUGAAGCUUCGUGCAC
B4: hsa-mir-7154 (structured_RNA)
RNA: GGGACGAUAAUAUAGCGACCCCUGACUAGGUGUACGAAGUUUCAGCGCUUGGAGCCUUGGUAGGGAAGCAAGCUGAGGAGAUAGGAGCUGAAGCUUCGUGCAC
B5: hsa-mir-194-2 (structured_RNA)
RNA: GGGACGUUACCACGACUAAGGUAAUGAUGGUGUACGAAGUUUCAGCGUGGAAGUGCCCACUGGUUCCAGCUGAAGCUUCGUGCAC
B6: hsa-mir-4698 (structured_RNA)
RNA: GGGAAGCGGGCAAAUGAGGUGCGUUUAAGGUGUACGAAGUUUCAGCUCCACCUAGACGGGCCUGGGUCAAGCUGAAGCUUCGUGCAC
B7: hsa-mir-3120 (structured_RNA)
RNA: GGGAAAGCCCAAGGACGGAGUGUAAUAUGGUGUACGAAGUUUCAGCUGUACAGGUGAGCGGAUGUUCUGCACAGCUGAAGCUUCGUGCAC
B8: NEAT1_ParasoR_ID47 (structured_RNA)
RNA: GGGAAAGCACGUAUAGGGGAAUCAUAUCGGUGUACGAAGUUUCAGCCUGUCCUGAAGAGACCAAAAUUAUGCAGAUUUAGGUAAGGCUGAAGCUUCGUGCAC
B9: hsa-mir-2277 (structured_RNA)
RNA: GGGACAGCAUGUGUUAGACUGGUAGGUUGGUGUACGAAGUUUCAGCGCCAGUCAGCGCUCACAUUAAGGCUGACGCUGAAGCUUCGUGCAC
B10: hsa-mir-597 (structured_RNA)
RNA: GGGAACACCCUCUCUGGGAUUUACGGUGGGUGUACGAAGUUUCAGCACCACUGUGAAGACAGUAAAAUGUACAGUGGUGCUGAAGCUUCGUGCAC
B11: hsa-mir-3664 (structured_RNA)
RNA: GGGAAUUGAAGCAACGAAACUAAGGCCUGGUGUACGAAGUUUCAGCGAGUACCUUCCAACACGAGCUCUCGCUGAAGCUUCGUGCAC
B12: hsa-mir-6124 (structured_RNA)
RNA: GGGAACCACUACUGGUGCCAGCGAUUUUGGUGUACGAAGUUUCAGCAGGAGAAGGUGAGACCAAUGUCCUGGGUGCCACUCCUGCUGAAGCUUCGUGCAC
B13: hsa-mir-5090 (structured_RNA)
RNA: GGGAAGGCCAAUACACUGUUCCCGGAUAGGUGUACGAAGUUUCAGCGGUGCAAAGCCUGCCCGCCCCGCUGAAGCUUCGUGCAC
B14: hsa-mir-550a-1 (structured_RNA)
RNA: GGGAACCUCAGGAGCGCAAGCCUUGAUCGGUGUACGAAGUUUCAGCAGCCCUGUUGUUGUAAGAUAGUGUGCUGAAGCUUCGUGCAC
B15: hsa-mir-569 (structured_RNA)
RNA: GGGACGGUCCCAACUAGUGAACUGCUUUGGUGUACGAAGUUUCAGCAACAACAGCAUCAGAAGCAACAUCAGCUUUAGUUGCUGAAGCUUCGUGCAC
B16: hsa-mir-6883 (structured_RNA)
RNA: GGGAAGAGCCAUGCUACGACGAUUAACUGGUGUACGAAGUUUCAGCGGAUGUGUUGACCCCUGAAGUGGUUCUGAUGACCUUUCCGCUGAAGCUUCGUGCAC
B17: hsa-mir-573 (structured_RNA)
RNA: GGGAAAAGGGUGGGAUGAACUACAAUAAGGUGUACGAAGUUUCAGCUCAGGAUCUACUCAUGUCGUCUUUGGGCUGAAGCUUCGUGCAC
B18: hsa-mir-769 (structured_RNA)
RNA: GGGAAGUCAUAGACUGCCUGCAGCAUAAGGUGUACGAAGUUUCAGCUGAGCUGUGAUGUUGCUCUCGAGCUGGGCUGAAGCUUCGUGCAC
B19: hsa-mir-613 (structured_RNA)
RNA: GGGAGGAUAUGCCAACCGGACAUGCAAGGGUGUACGAAGUUUCAGCUCCUGUAGUGUCUUAUAUACAAUACAGUAGGAGCUGAAGCUUCGUGCAC
B20: hsa-mir-4286 (structured_RNA)
RNA: GGGAACGCGAAGGGUUGUUUAUUGCAAGGGUGUACGAAGUUUCAGCACCAUAGUCAUAAGUUAGGAGAUGUUAGAGCUGUGAGUGCUGAAGCUUCGUGCAC
B21: hsa-mir-4775 (structured_RNA)
RNA: GGGAGGCAGCCAACGAAUUGAUGAUUCUGGUGUACGAAGUUUCAGCCUCUUGAUAGCAGACAUGCUGAAGCUUCGUGCAC
B22: hsa-mir-4312 (structured_RNA)
RNA: GGGACACCGGAUUACAGCAGCCUACAAGGGUGUACGAAGUUUCAGCGGAGCCUUCCCCAGAGGAGUCAGGCCGCUGAAGCUUCGUGCAC
B23: hsa-mir-7107 (structured_RNA)
RNA: GGGAACUAAGCAGCAAUUAAAAGUGCGCGGUGUACGAAGUUUCAGCAGGGCAAGUCCAAAGGUAUACAGUUGGUCUGUUCAGCUGAAGCUUCGUGCAC

target: U1A (Homo sapiens, UniProt P09012); assay: FOREST: bead pull-down of RNA structure library v1, barcode microarray; U1A/LIN28A: 20 mM HEPES pH 7.5, 80 mM KCl, 20 mM NaCl, 10% glycerol, 2 mM DTT, 0.1 ug/uL BSA, 4 C; BG4/CIRBP/DHX36: 10 mM Tris-HCl pH 7.5, 100 mM KCl (or LiCl),; high values mean tight binding

| Binder | binding signal [z-score] |
| --- | --- |
| B1 | 0.628 |
| B2 | 0.628 |
| B3 | 0.66 |
| B4 | 0.621 |
| B5 | 0.646 |
| B6 | 0.653 |
| B7 | 0.657 |
| B8 | 0.656 |
| B9 | 0.62 |
| B10 | 0.641 |
| B11 | 0.642 |
| B12 | 0.632 |
| B13 | 0.647 |
| B14 | 0.653 |
| B15 | 0.648 |
| B16 | 0.623 |
| B17 | 0.626 |
| B18 | 0.631 |
| B19 | 0.628 |
| B20 | 0.655 |
| B21 | 0.624 |
| B22 | 0.619 |
| B23 | 0.629 |

target: T1, LIN28A; assay: as above

| Binder | binding signal [z-score] |
| --- | --- |
| B1 | -0.178 |
| B2 | 1.27 |
| B3 | -0.503 |
| B4 | 1.35 |
| B6 | 0.0757 |
| B7 | -0.0106 |
| B8 | 1.06 |
| B9 | 1.82 |
| B10 | -0.167 |
| B11 | 0.393 |
| B12 | 0.0957 |
| B13 | 0.77 |
| B14 | 0.83 |
| B15 | 0.71 |
| B16 | -0.675 |
| B17 | -0.672 |
| B18 | 0.368 |
| B19 | -0.238 |
| B20 | 1.69 |
| B21 | 9.74e-05 |
| B22 | -1.07 |
| B23 | 1.18 |

target: T2, CIRBP; assay: as above

| Binder | binding signal [z-score] |
| --- | --- |
| B1 | 0.258 |
| B2 | 0.793 |
| B3 | -0.736 |
| B4 | -0.0406 |
| B5 | 0.0117 |
| B6 | -0.324 |
| B7 | -0.679 |
| B8 | 1.12 |
| B9 | 0.174 |
| B10 | -0.697 |
| B11 | 0.923 |
| B12 | -0.202 |
| B13 | 0.358 |
| B14 | 0.441 |
| B15 | -0.276 |
| B16 | -0.00776 |
| B17 | -0.846 |
| B18 | -0.143 |
| B19 | -0.454 |
| B20 | 1.62 |
| B21 | 0.0103 |
| B22 | 0.275 |
| B23 | 0.116 |

target: T3, DHX36; assay: as above

| Binder | binding signal [z-score] |
| --- | --- |
| B1 | 0.285 |
| B2 | -0.573 |
| B3 | -0.51 |
| B4 | 0.898 |
| B5 | 0.889 |
| B6 | 0.101 |
| B7 | -0.229 |
| B8 | -0.0344 |
| B9 | -0.127 |
| B10 | -1.34 |
| B11 | -0.0932 |
| B12 | -0.118 |
| B13 | 0.963 |
| B14 | -0.0353 |
| B15 | 0.194 |
| B16 | -0.428 |
| B17 | -1.14 |
| B18 | -0.459 |
| B19 | -0.0761 |
| B20 | -0.899 |
| B21 | -0.201 |
| B22 | -0.953 |
| B23 | 0.0271 |

— paper PMC7723054
